Ab-14 light chain CDR variants: yeast mating affinities

From the AlphaSeq antibody data of Li et al. 2023 (doi:10.1038/s41467-023-39022-2), copy in the FLAb collection.

Antigen: PDVDLGDISGINAS, a 14-residue peptide of the SARS-CoV-2 spike HR2 region.

The variants keep the heavy chain, the linker and the frameworks of Ab-14 (scFv order VH, a 15-residue (Gly4Ser)3 linker, VL).
VH: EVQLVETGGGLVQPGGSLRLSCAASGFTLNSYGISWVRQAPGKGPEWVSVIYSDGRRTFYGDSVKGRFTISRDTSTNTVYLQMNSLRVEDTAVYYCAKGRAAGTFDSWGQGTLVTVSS
VL: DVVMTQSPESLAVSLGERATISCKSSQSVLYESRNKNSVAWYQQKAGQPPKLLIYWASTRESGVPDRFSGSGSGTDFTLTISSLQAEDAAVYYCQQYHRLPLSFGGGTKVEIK

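The parent was found by panning a naive human phage display library on the peptide. This is the validation round: designs drawn from the data on random variants, tested in the same kind of assay. Group labels follow the data file (Ctrl: baseline library sampled from a position-specific scoring matrix, with some repeated check sequences; GP: Gaussian process model; GPLM: also part of the Gaussian process libraries; HC: hill climbing; Gen: genetic algorithm; a sequence that several methods proposed may carry one label only). The assay is AlphaSeq: two haploid yeast populations carry antibody and antigen on their surface. Binding brings cells together so that they mate, and sequencing counts the barcode pairs among the diploids. Scores were corrected for input abundance and mapped to Kd with protein pairs of known affinity run in the same pool. Mating was done six times.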

Each variant is given by its three light chain CDRs, as the data file delimits them; those of the parent are KSSQSVLYESRNKNSVA, WASTRES, QQYHRLPLS.
The read-out is the apparent dissociation constant on a log10 scale (nM): the lower, the stronger.
A pair that was not seen in that replicate is written "n.d."; this usually means weak binding, but a binder can also be missed.
Where one sequence has several entries in the source, the replicates are listed entry by entry, parted by semicolons.

| CDR-L1 | CDR-L2 | CDR-L3 | group | log10 Kd (nM) by replicate | empty controls |
|---|---|---|---|---|---|
| KSSQSVLYESRNKNSVA | WASTRYS | QQYHRLPNS | Ctrl | n.d. n.d. n.d. n.d. n.d. 1.52 | 0 of 18 |
| KLSQSFNYESRNKNSVA | MASTRES | QQYHRLPLS | Ctrl | 1.51 0.25 1.53 0.14 0.89 0.98 | 0 of 18 |
| KSSQSTLYESRNSNSVA | NASTRES | TQYHRLPLS | Ctrl | n.d. n.d. n.d. 2.97 3.18 2.20 | 2 of 18 (2.59) |
| KLSTSVLYESRNKNSVA | WASTRFS | QQYHRLPLS | Ctrl | 0.81 0.76 1.03 0.92 0.68 0.52 | 1 of 18 (2.84) |
| MLSQSVLYESRNKNSVA | RAFTRES | QQYHRLPLS | Ctrl | n.d. n.d. n.d. 2.84 1.65 1.18 | 0 of 18 |
| KSSQSTIYESRNKNSVA | WASTREL | QQYHRLPLS | Ctrl | n.d. n.d. 2.33 n.d. n.d. n.d. | 2 of 18 (1.32) |
| KSSQSVEYESRNKNSVA | WATERES | QQYHRLPLS | Ctrl | 1.62 0.61 0.78 0.67 0.72 0.67 | 0 of 18 |
| KSSQSMLYESRHKNSVA | WASTRES | QQYHRWPII | Ctrl | n.d. n.d. n.d. n.d. n.d. n.d. | 0 of 18 |
| LSSQSLLYESRNWNSVA | MASTRAS | QDYHRLPCD | Ctrl | n.d. n.d. n.d. n.d. n.d. n.d. | 0 of 18 |
| KVDLSVLEESRNKNSLA | WASTRES | QQHHRLPLS | Ctrl | 1.33 0.90 1.18 0.94 0.63 1.15 | 0 of 18 |
| YSSQSVLKESRTKNSVA | SASTRES | QQYHRLPLS | Ctrl | 1.07 1.34 1.15 1.02 0.74 0.97 | 1 of 18 (2.37) |
| YFSQSVLYESRNKNSVA | WISTRES | QQYHRLPLS | Ctrl | n.d. n.d. n.d. n.d. n.d. n.d. | 0 of 18 |
| KTSQSVLYESRNKNNVA | WASTRES | QQYHRLPLS | Ctrl | 1.30 1.28 0.62 1.28 1.05 1.42 | 0 of 18 |
| KSSQSVLYESRNKNSVA | WASTREI | QQYHRLPLS | Ctrl | 1.99 n.d. n.d. 1.94 n.d. 2.34 | 0 of 18 |
| KSSQSVLEESRNKNSVA | WASTRES | QQYLRLPLS | Ctrl | n.d. n.d. n.d. 1.75 n.d. n.d. | 0 of 18 |
| KSSQSVLYESTNENSVA | WAVTRES | QQYHRLPIS | Ctrl | n.d. n.d. n.d. n.d. 3.84 3.72 | 0 of 18 |
| YMSQSVLNESRNKNSVA | WASTRES | QQYDRLPLS | Ctrl | 2.11 1.98 1.64 2.02 1.60 2.85 | 0 of 18 |
| KSSQSVLYESQNKNSVA | QVSIRES | QCYHRLPLS | Ctrl | n.d. 2.76 1.65 1.69 1.55 2.30 | 1 of 18 (2.58) |
| KSSQSVLYESQNKNSVA | WASTRES | QQYHRLPVS | Ctrl | n.d. n.d. n.d. n.d. n.d. n.d. | 0 of 18 |
| KHSQSVLYESRNFNSVA | WATTRES | QQYHRLPLY | Ctrl | n.d. n.d. n.d. n.d. n.d. n.d. | 1 of 18 (1.67) |
| KSSQSVLYESRNLNSVA | SASTRES | QQAHRLPLS | Ctrl | n.d. n.d. n.d. n.d. n.d. n.d. | 0 of 18 |
| KSSQLVLYESRNKNSVA | DGSTRES | QQYHRLPLS | Ctrl | 0.19 0.00 0.05 0.10 -0.09 0.34 | 0 of 18 |
| KWIESVLYESTNKNSVA | WASTRES | QQYHRLPLS | Ctrl | 1.74 1.90 2.09 2.79 2.34 2.38 | 1 of 18 (1.75) |
| KSSQSVLQESRNKNSVA | NAMTRES | QQYHRLPLS | Ctrl | 0.41 0.33 0.17 0.30 0.44 0.53 | 0 of 18 |
| KISQSVLYESRNKNSVA | WASTRES | QQYHRAPLS | Ctrl | 1.78 1.43 1.30 1.39 1.22 1.20 | 1 of 18 (2.75) |
| KSSQSVGYESRNYNSVA | WASTRES | QQYHRTPLS | Ctrl | 1.31 1.50 1.99 1.67 1.03 1.42 | 0 of 18 |
| KSSQSVLYESDNKNSVA | WASTRES | QQYHRIPLS | Ctrl | n.d. n.d. 2.01 n.d. n.d. n.d. | 2 of 18 (3.02) |
| KSSQSLLMESRNKNWVA | WASTRES | QQTHRLPLS | Ctrl | n.d. n.d. n.d. n.d. n.d. n.d. | 3 of 18 (2.74) |
| KASQSVLYESRNKNSVA | DASTRES | QQYHRLPLS | Ctrl | n.d. n.d. n.d. n.d. n.d. n.d. | 0 of 18 |
| KFSESVLYESRNKNSVA | MAQTRES | SSYHRLPLS | Ctrl | 2.42 2.25 1.60 n.d. 2.62 2.54 | 1 of 18 (2.69) |
| KISQSVLFESRNKNSVA | SASTRES | QQYHRLYLS | Ctrl | n.d. n.d. n.d. n.d. n.d. n.d. | 0 of 18 |
| KGSQSVLYESRNKNSVA | HASTRLE | QQYHELKLS | Ctrl | n.d. n.d. n.d. 1.17 n.d. n.d. | 1 of 18 (2.72) |
| ISSQTVLYESRNTNSVA | ERSTRES | QQYHRLPLS | Ctrl | n.d. n.d. n.d. 0.80 n.d. n.d. | 0 of 18 |
| KSSQSVLYEGRNKNSVA | WASTREN | QQCHRLPLS | Ctrl | n.d. n.d. n.d. n.d. n.d. n.d. | 1 of 18 (0.72) |
| KSSQSVLYESMNKNSVA | WASTRES | QQYHRLPLF | Ctrl | n.d. n.d. n.d. 1.99 n.d. 2.42 | 0 of 18 |
| KYSQSVLYESRNKNSVA | HASVRES | QQYHYLPLS | Ctrl | 0.57 0.68 0.66 1.08 0.29 0.72 | 0 of 18 |
| KSSQSVLYESRNKNSVA | GASTRES | QQYHRLPLS | Ctrl+GPLM_HC | 1.47 0.23 0.54 0.38 0.72 0.95; 0.68 0.62 0.21 0.39 0.44 0.60 | 0 of 36 |
| KSSQSSLYESRTCNSVA | GASTRES | QQYHRLPLS | Ctrl | 0.77 1.07 0.92 0.62 0.81 0.98 | 2 of 18 (3.49) |
| KMSQSVLYESLNKNSVA | HASTRES | QQYHRLPLS | Ctrl | 0.04 0.09 0.01 -0.04 -0.19 -0.02 | 1 of 18 (3.13) |
| FSSQSVLYESRNCNNVA | HAVTRES | QQYHRLPLS | Ctrl | 1.53 0.90 1.48 1.13 1.04 1.24 | 0 of 18 |
| KSSGSVLEESSNKNSVA | WASTRES | QQYVRYPLS | Ctrl | n.d. 3.15 n.d. n.d. 2.65 3.09 | 2 of 18 (2.70) |
| KSSQSVLYESRNKNSVA | QASTRES | QYYHRLPLS | Ctrl | n.d. 2.14 n.d. n.d. n.d. 2.34 | 1 of 18 (1.58) |
| KFSQSVLYESRNKNSVA | EASTRES | QQYHRLPLS | Ctrl+GP_Gen | -0.06 -0.29 -0.25 -0.28 -0.31 -0.15; -0.33 -0.37 -0.44 -0.38 -0.57 -0.28 | 1 of 36 (3.14) |
| KSPQSVLYESRNKNSVA | YASTRES | QQYHRLPLS | Ctrl | 1.75 0.73 0.71 1.13 2.54 1.11 | 0 of 18 |

The last 4 entries again:

| CDR-L1 | CDR-L2 | CDR-L3 | group | log10 Kd (nM) by replicate | empty controls |
|---|---|---|---|---|---|
| KSSGSVLEESSNKNSVA | WASTRES | QQYVRYPLS | Ctrl | n.d. 3.15 n.d. n.d. 2.65 3.09 | 2 of 18 (2.70) |
| KSSQSVLYESRNKNSVA | QASTRES | QYYHRLPLS | Ctrl | n.d. 2.14 n.d. n.d. n.d. 2.34 | 1 of 18 (1.58) |
| KFSQSVLYESRNKNSVA | EASTRES | QQYHRLPLS | Ctrl+GP_Gen | -0.06 -0.29 -0.25 -0.28 -0.31 -0.15; -0.33 -0.37 -0.44 -0.38 -0.57 -0.28 | 1 of 36 (3.14) |
| KSPQSVLYESRNKNSVA | YASTRES | QQYHRLPLS | Ctrl | 1.75 0.73 0.71 1.13 2.54 1.11 | 0 of 18 |

As a blank, each scFv also met three strains without target: over all light chain designs, 4% of these pairings were detected, typically at 2.64 and seldom below 1.59. The control count says in how many pairings with the empty strains this scFv gave a signal, with their mean in brackets.
The range of this assay differs from that of the first round, and the authors advise against merging the two.
The authors averaged sequences with at least three values out of six and counted those with two or fewer as poor binders.